Protein sequences, listed by entry. Tags and fused reporters are not part of them. Residues count along the entry.
UniProt P21964, 52-271 limits assumed: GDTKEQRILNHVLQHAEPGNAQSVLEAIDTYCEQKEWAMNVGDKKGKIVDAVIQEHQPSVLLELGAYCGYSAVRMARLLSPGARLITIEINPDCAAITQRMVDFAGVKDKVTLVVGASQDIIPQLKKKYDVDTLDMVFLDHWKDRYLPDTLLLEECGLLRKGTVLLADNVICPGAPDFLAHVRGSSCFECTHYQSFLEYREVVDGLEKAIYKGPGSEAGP

According to patent US10035799B2, “COMT inhibiting methods and compositions” (Lieber Institute for Brain Development, priority 2015, dated 2018):

Molecular target: catechol-O-methyltransferase (COMT) (Homo sapiens, UniProt P21964)
Assay: COMT inhibition assay (HTRF, production of S-adenosyl homocysteine)
Conditions: recombinant human COMT, HTRF SAH production; MB-COMT or S-COMT not stated for Table 1; tested form: trifluoroacetate (TFA salt)
Procedure: The ability of compounds to inhibit the activity of catechol-O-methyltransferase (COMT) was determined by a homogenous time-resolved fluorescent (HTRF) assay (Lina et al, 2012; kit from CisBio, Codolet, France). This assay measures the production of S-adenosyl homocysteine (SAH) from the methyl donor S-adenosyl methionine. Recombinant human membrane bound COMT (MB-COMT; M51A variant) was expressed in HEK 293F cells using 293Fectin (Life Technologies, Gent, Belgium) and membranes prepared. The membranes were re-suspended in buffer (20 mM Tris/HCl pH 7; 10 mM glycerol; 2 mM MgCl2; 10 mM NaCl), aliquoted and stored at −80° C. […]
For the human MB-COMT assay, membranes (62 ng/well) were incubated with SAM (20 μM final, CisBio) and dopamine (1.5 μM final; Sigma H8502, Diegem, Belgium) in the presence or absence of varying concentrations (typically 10 concentrations ranging from 10 μM to 0.1 nM) of compound for 40 min at 37° C. in 384-well microtitre plates (10 μl per well final volume). The reaction was terminated by the addition of acylation buffer and the amount of SAH produced determined according to manufacturer's instructions. […]
The human S-COMT assay was performed as above except that 0.15 ng enzyme/well was incubated with SAM (20 μM final) and dopamine (100 μM final) for 15 min at 37° C. and SAH production determined. […]

O=S(=O)(c1ccc(O)c2ncccc12)C1CCN(Cc2cccc(Cl)c2Cl)CC1 [Example 38, 5-[[1-[(2,3-dichlorophenyl)methyl]-4-piperidyl]sulfonyl]quinolin-8-ol]
Activity range (pIC50, COMT inhibition): +++ (a pIC50 of above about 7)
